Results from patent publication US20130129675A1, “INTERFERON THERAPIES IN COMBINATION WITH BLOCKADE OF STAT3 ACTIVATION” (BOARD OF REGENTS, THE UNIVERSITY OF TEXAS SYSTEM, priority 2009, published 2013).

Experiments:
[1] = system: STAT3 in HaCaT keratinocytes; experiment: pSTAT3 level in HaCaT keratinocytes (MSD chemiluminescent detection); type: cell-based, human
Description: Prior to experiments, the DMEM medium was changed to KGM-SFM containing rEGF and bovine pituitary extract for 12 hours, and the cells then exposed to various stimuli for 30 minutes. Cell lysates were extracted in IP lysis buffer were diluted in MSD extraction buffer and 25 uL of the cell lysate containing 10 ug protein was used in the analysis via chemiluminescent detection (MSD Technology). To test for inhibition by WP1220 (WP), cells were pre-incubated with WP1220 prior to the addition of IFN α.

[2] = system: STAT3 in HH, HuT78 and MJ CTCL lines; experiment: STAT3 tyrosine 705 phosphorylation in CTCL lines; type: cell-based, human; conditions: serum starved 18 hours, stimuli 30 minutes (FIG. 7)
Description: To determine whether IFN alpha and beta were able to selectively phosphorylate STAT3 in other cell types. Studies were conducted in a range of other biologically relevant cell types. In these experiments, cells were grown in media supplemented with 10% FBS, and then serum starved for 18 hours and exposed to various stimuli for 30 minutes. […] (FIG. 10), and induced caspase-3 and PARP cleavage in these cells (Table E5)

[3] = system: STAT3 and Jak2 phosphorylation in SUP-T1 lymphoma cell line; experiment: Cytokine signalling in SUP-T1 lymphoma cell line; type: cell-based; conditions: SUP-T1 lymphoma cell line (data not shown)

Row | Molecule | Relative level of pSAT3 ([1]; HaCaT cells, stimuli for 30 minutes) | tyrosine phosphorylation of STAT3 (tyrosine 705) [2] | STAT3 activation in keratinocytes [1] | STAT3 and Jak2 phosphorylation [3]
1 | IL-2: cytokine, stimulus in HaCaT pSTAT3 test | + (+=less than 200 fold) |  |  | 
2 | IFN-β: Type I interferon used as stimulus of STAT3 phosphorylation (protein, UniProt P01574 22-187, looked up) Interferon beta: MSYNLLGFLQRSSNFQCQKLLWQLNGRLEYCLKDRMNFDIPEEIKQLQQFQKEDAALTIYEMLQNIFAIFRQDSSSTGWNETIVENLLANVYHQINHLKTVLEEKLEKEDFTRGKLMSSLHLKRYYGRILHYLKAKEYSHCAWTIVRVEILRNFYFINRLTGYLRN |  | selectively stimulates tyrosine phosphorylation of STAT3 | potently induce STAT3 activation | potently induce STAT3 but not Jak2 phosphorylation
